In patent US20020188202A1, “Method of diagnosis and treatment and related compositions and apparatus” (priority 1996, published 2002):

Key:
[1] = test system: patients with MS-like syndrome associated with breast implants and cerebral vasospasm; conditions: for clinical and TCD improvement: 11 patients, Toradol IM then by mouth (10 patients), Nitroglycerine by spray and patch
[2] = test system: patients with MS-like syndrome associated with breast implants and cerebral vasospasm; conditions: human, in vivo
[3] = test system: whiplash patients with cerebral vasospasm
[4] = sublingual spray, continuous TCD

SMILES	clinical and TCD improvement [1]	symptoms of fibromyalgia and fibromyositis ([1]; all patients who started treatment)	nitrite sensitivity [2]	intermittent syncope and episodic hemiplegic migraines ([3]; 2 patients, shortly into therapy)	P300 ([3]; 5 patients, during the course of treatment)	continued requirement of narcotics ([3]; 21 of the 38 on narcotics at start)	clinical improvement ([3]; after first administration, 38 whiplash patients)	symptoms of post-traumatic fibromyalgia and fibromyositis ([3]; four patients)	changes in pulse or blood pressure readings ([3]; generally no changes beyond this)	failures to treatment (patients) ([3]; of 38 patients)	TCD improvement ([3]; patients later identified as nitrite sensitive)	blood pressure changes including orthostatic changes ([3]; significance defined as 10 points or greater in systolic, diastolic or pulse)	response of single patients who are nitrite sensitive or unable to tolerate Nitroglycerine ([3]; single patients)	adverse reaction in single patients ([3]; single patients, listed as Nitrodur)	adverse reaction in single patients ([3]; single patients, listed as Nitroglycerine)	continued relaxation of the intracranial spasm identified out to [3, 4]	time of peak degree of relaxation [3, 4] [h]	time at which improvement in Mean Flow Velocities was shown ([3]; sublingual spray, continuously TCD monitored patients) [min]	gastritis ([1]; human, in vivo)
O=[N+]([O-])OCC(CO[N+](=O)[O-])O[N+](=O)[O-] [Nitroglycerin]	dramatic clinical improvement in exam and clinical symptoms with resolution of vasospasm	resolved while on therapy and returned if they stopped therapy	no patients are found to be nitrite sensitive	complete resolution of both of these problems	shows improvement	No patients who are able to tolerate Nitroglycerine treatment continued to require narcotics	All patients showed clinical improvement	completely resolve	less than 5 points	3	3 patients did not show significant TCD improvement	No blood pressure changes, including orthostatic changes, of significance	failed	one such episode is brought on	unable to tolerate	two	1	15	
O=C(c1ccccc1)c1ccc2n1CCC2C(=O)O (centres unmarked) [Toradol, ketorolac tromethamine]	consistent improvement clinically and with respect to the TCD																		gastritis developed in all cases

Read-outs that look alike come from different tables or passages of the source.
